Measured values published in publication PMC3412733, “Identification and recombinant expression of anandamide hydrolyzing enzyme from Dictyostelium discoideum” (BMC Microbiology, 2012).

How the values were obtained:
[1] = target: T1, HIS-FAAH (Dictyostelium FAAH) (Dictyostelium discoideum, UniProt Q8MMR8); test: biochemical; details: read-out: % inhibition at 2.5 mM
T1 construct: gene DDB_G0275967
T1 sequence (Q8MMR8 1-637): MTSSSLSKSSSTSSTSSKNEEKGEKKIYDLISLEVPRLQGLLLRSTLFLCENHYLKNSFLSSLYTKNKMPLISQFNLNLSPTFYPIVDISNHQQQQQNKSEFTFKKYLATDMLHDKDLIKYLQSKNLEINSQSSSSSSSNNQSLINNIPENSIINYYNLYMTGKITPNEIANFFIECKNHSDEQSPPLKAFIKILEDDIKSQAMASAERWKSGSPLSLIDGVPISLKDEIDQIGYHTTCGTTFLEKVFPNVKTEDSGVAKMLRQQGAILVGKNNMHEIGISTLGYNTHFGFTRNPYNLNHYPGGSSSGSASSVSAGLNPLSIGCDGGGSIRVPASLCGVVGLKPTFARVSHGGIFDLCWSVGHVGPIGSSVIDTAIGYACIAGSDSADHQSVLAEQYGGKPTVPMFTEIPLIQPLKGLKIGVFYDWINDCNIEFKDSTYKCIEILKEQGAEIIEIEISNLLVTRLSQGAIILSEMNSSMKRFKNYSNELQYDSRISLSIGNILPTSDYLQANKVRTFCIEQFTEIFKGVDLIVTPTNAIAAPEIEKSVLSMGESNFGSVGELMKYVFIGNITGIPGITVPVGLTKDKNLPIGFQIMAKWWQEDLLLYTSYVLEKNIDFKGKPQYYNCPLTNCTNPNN

[2] = substrate: CCCCCCCCCC(=O)Nc1ccc([N+](=O)[O-])cc1; test: p-nitroaniline release, A380, Michaelis-Menten fit; type: biochemical, Dictyostelium discoideum; details: pH 9.0, 37°C, 0.5% Triton X-100, 10% DMSO
[3] = substrate: CCCCC/C=C\C/C=C\C/C=C\C/C=C\CCCC(=O)Nc1ccc([N+](=O)[O-])cc1; test: p-nitroaniline release, A380, Michaelis-Menten fit; type: biochemical, Dictyostelium discoideum; details: pH 9.0, 37°C, 0.5% Triton X-100, 10% DMSO

With `CN(C)C(=O)n1nnnc1Cc1ccc(-c2ccccc2)cc1` [LY2183240] the inhibition at 2500 µM [1] was ~62%.

B1: HIS-FAAH (Dictyostelium FAAH) (Dictyostelium discoideum) (protein)
chain: MTSSSLSKSSSTSSTSSKNEEKGEKKIYDLISLEVPRLQGLLLRSTLFLCENHYLKNSFLSSLYTKNKMPLISQFNLNLSPTFYPIVDISNHQQQQQNKSEFTFKKYLATDMLHDKDLIKYLQSKNLEINSQSSSSSSSNNQSLINNIPENSIINYYNLYMTGKITPNEIANFFIECKNHSDEQSPPLKAFIKILEDDIKSQAMASAERWKSGSPLSLIDGVPISLKDEIDQIGYHTTCGTTFLEKVFPNVKTEDSGVAKMLRQQGAILVGKNNMHEIGISTLGYNTHFGFTRNPYNLNHYPGGSSSGSASSVSAGLNPLSIGCDGGGSIRVPASLCGVVGLKPTFARVSHGGIFDLCWSVGHVGPIGSSVIDTAIGYACIAGSDSADHQSVLAEQYGGKPTVPMFTEIPLIQPLKGLKIGVFYDWINDCNIEFKDSTYKCIEILKEQGAEIIEIEISNLLVTRLSQGAIILSEMNSSMKRFKNYSNELQYDSRISLSIGNILPTSDYLQANKVRTFCIEQFTEIFKGVDLIVTPTNAIAAPEIEKSVLSMGESNFGSVGELMKYVFIGNITGIPGITVPVGLTKDKNLPIGFQIMAKWWQEDLLLYTSYVLEKNIDFKGKPQYYNCPLTNCTNPNN
notes: full length (637 residues, 70 kDa), N-terminal 6xHis tag kept, expressed in Dictyostelium AX3 (pDEXRH), Ni-NTA purified with Triton X-100
In the case of B1, the Km [2] is reported as 65 µM, the kcat [2] is reported as 0.023 s⁻¹ and the Km [3] is reported as 47 µM. It also gave a kcat [3] of 0.045 s⁻¹.
